ChEMBL document CHEMBL3271943, “P-Aminobenzoic acid derivatives. Mode of action and structure-activity relationships in a cell-free system (Escherichia coli)” (J Med Chem, 1977)

Test: Partition coefficient, log P of the compound
Assay type: physicochemical
Details: octanol/water

Nc1ccc(C(=O)O)cc1 [AMINOBENZOIC ACID]
logP: 0.83
